Measured affinities in a library of Ab-14 light chain variants

From the AlphaSeq antibody data of Engelhart et al. 2022 (doi:10.1038/s41597-022-01779-4), copy in the FLAb collection.

All variants were tested on one target, the spike HR2 peptide PDVDLGDISGINAS (SARS-CoV-2).

Parent: Ab-14, a human scFv built as VH, a 15-residue (Gly4Ser)3 linker, VL. Only the CDRs of the light chain vary.
VH: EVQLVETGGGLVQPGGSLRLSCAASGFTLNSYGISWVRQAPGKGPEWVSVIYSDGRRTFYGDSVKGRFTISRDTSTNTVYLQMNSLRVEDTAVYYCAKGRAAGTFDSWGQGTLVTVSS
VL: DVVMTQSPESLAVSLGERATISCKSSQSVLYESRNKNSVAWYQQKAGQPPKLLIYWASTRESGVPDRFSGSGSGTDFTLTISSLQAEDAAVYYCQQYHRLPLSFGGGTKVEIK

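The starting antibody came from a phage panning campaign against this peptide. Library AAYL50 holds single substitutions and randomly drawn double and triple substitutions in the CDRs. Affinity was read by AlphaSeq, a pooled yeast mating assay with surface-displayed partners. Pairs that bind mate more often; barcode pairs of the diploids are counted by sequencing. Each replicate has its own calibration line, from reference interactions of the BCL2 family. Each pool was mated in three replicate cultures.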

The parent's light chain CDRs are KSSQSVLYESRNKNSVA, WASTRES, QQYHRLPLS; each variant's own CDRs replace them letter for letter.
Values are log10 of the apparent Kd in nM; lower means stronger binding.
An entry "n.d." has no value in the source: the pair was not observed among the diploids in that replicate. This suggests poor binding but is not conclusive.
Parent in this assay: reference entry 0.65, copy in this library 1.68.
As a blank, each scFv also met three strains without target: over library AAYL50, 18% of these pairings were detected, typically at 4.19 and seldom below 2.99. Also given: how often the same scFv was detected with the empty control strains, with their mean in brackets.

CDR-L1	CDR-L2	CDR-L3	replicates, log10 nM	signal with controls
KSSQSVLGESRNKNSVA	RASTRES	QSYHRLPLS	0.20 0.45 0.44	1/9 (5.59)
CSSQSVLYESRNKNSVA	WASTRHS	QQYWRLPLS	2.51 2.79 3.83	0/9
KMSQSHLYNSRNKNSVA	WASTRES	QQYHRLPLS	0.38 0.39 0.21	4/9 (4.05)
KSSQSVLYESRNKNSHK	KASTRES	QQYHRLPLS	n.d. n.d. n.d.	0/9
KSSQSVLYESRNKNSIA	WASTRES	QQKHRLALS	n.d. n.d. n.d.	2/9 (4.44)
KSSQSVLYESRNKNIVY	WASTRES	QQYHRLPMS	4.33 n.d. n.d.	1/9 (4.45)
KSSQSVQYENRNKNSVA	WASTRES	QQYHRAPLS	0.62 0.94 0.87	4/9 (4.10)
KSSQSVLYEHRNKNSVA	WASTRES	QQYHRLPLS	1.63 1.76 1.62	0/9
KQSQSVLMESRNKNSVA	WASTRES	QQYHRHPLS	3.28 4.21 3.39	2/9 (5.02)
KSSDSVLYESRNKNSVA	VASTRES	QQYHSLPLS	n.d. 3.76 5.28	3/9 (5.36)
KSSQSVLYLNRNKNLVA	WASTRES	QQYHRLPLS	n.d. 3.06 2.55	2/9 (4.09)
KSSWSVLYESRNKNSVA	WASTRES	QQYWRLPRS	4.92 n.d. 4.11	2/9 (3.96)
KSSQSVIYESRNLNSVA	WASTRES	QQYHRVPLS	n.d. n.d. 6.21	0/9
KSSQSVLYESRRKNSVA	WASTREF	QQYHVLPLS	2.55 2.96 2.55	1/9 (2.64)
KSSQSVLYESRNKRSVA	WASTRES	QLYHKLPLS	2.72 2.49 2.20	2/9 (3.79)
KMSQSVLYESRNKNKVK	WASTRES	QQYHRLPLS	n.d. 4.26 5.02	0/9
PSSQSVLYESRNKNSVA	WLSTRES	QQYHRLWLS	n.d. n.d. n.d.	0/9
KSSGSVLYESRNKNSVA	WASTRES	QQYGRLPVS	0.81 1.03 0.94	4/9 (5.12)
KSSQSVLYESRNKNSVA	WASTRES	QQYHRNIQS	n.d. 4.35 4.18	4/9 (4.20)
DSSQSVLYESRNKNSVA	WASTRES	PQYHRLPLS	5.63 n.d. 3.23	2/9 (4.82)
KSSQSVLFEHRNKNSVA	WASTRES	QQYHRLPLS	2.57 2.87 3.44	1/9 (3.73)
KSSQSVLYESRNKNSVA	WAPTIES	MQYHRLPLS	n.d. n.d. n.d.	3/9 (4.37)
KSSQSVLYESRNKNSVA	WASTGEY	QQRHRLPLS	3.20 n.d. n.d.	0/9
KSSQSVLYESRNKNSVA	WANTREP	QQYHRLPYS	n.d. n.d. n.d.	1/9 (3.48)
KSSQSVLYESRNINSVA	WASTGES	QQYHRLELS	n.d. n.d. n.d.	1/9 (4.19)
KSSQSVLYESRHKNSVP	WASGRES	QQYHRLPLS	n.d. n.d. n.d.	0/9
YSSQSVLYESRNKNSVA	WASTPES	QQYHYLPLS	n.d. n.d. n.d.	1/9 (2.79)
KSSQSVLYESRNKNLVA	WASTRES	QQYLRLPLR	n.d. n.d. n.d.	3/9 (4.15)
KSSQSLLYESRNKNSVA	CASTRES	WQYHRLPLS	1.64 1.46 1.59	1/9 (5.26)
KSSQSVLYESRNKNCVA	WASTRES	QQCMRLPLS	0.47 0.67 0.61	1/9 (4.03)
KSSQSVLYFSRNKNSVA	WASTRES	QQYHRAPLD	n.d. n.d. n.d.	0/9
KSSQSVLYESRNKNSCA	WASTRSS	QQYHRLPES	n.d. n.d. n.d.	2/9 (3.10)

The last 2 entries again:

| CDR-L1 | CDR-L2 | CDR-L3 | replicates, log10 nM | signal with controls |
|---|---|---|---|---|
| KSSQSVLYFSRNKNSVA | WASTRES | QQYHRAPLD | n.d. n.d. n.d. | 0/9 |
| KSSQSVLYESRNKNSCA | WASTRSS | QQYHRLPES | n.d. n.d. n.d. | 2/9 (3.10) |